The source of these data is PMC9781217, “Discovery of Novel and Selective G-Protein Coupled Receptor 120 (GPR120) Agonists for the Treatment of Type 2 Diabetes Mellitus” (Molecules, 2022).

Amino acid sequences for entries named in this document (tags omitted).
UniProt Q76JU9, whole entry: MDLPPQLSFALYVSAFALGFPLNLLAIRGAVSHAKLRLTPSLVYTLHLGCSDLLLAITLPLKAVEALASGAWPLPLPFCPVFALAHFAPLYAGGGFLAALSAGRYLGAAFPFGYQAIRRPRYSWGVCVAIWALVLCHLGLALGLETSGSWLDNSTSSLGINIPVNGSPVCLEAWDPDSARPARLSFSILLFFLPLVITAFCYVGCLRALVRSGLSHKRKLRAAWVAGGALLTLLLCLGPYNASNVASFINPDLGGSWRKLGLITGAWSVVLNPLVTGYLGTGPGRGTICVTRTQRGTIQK

The target of one assay is mouse GPR40 (mGPR40) (Mus musculus, UniProt Q76JU9). The assay can be described thus: Calcium flux assay in CHO cells expressing mouse GPR40. (In general: A change in cytosolic calcium serves as a functional read-out for many receptors and channels.)
For a further assay, the target named is T1, mouse GPR120 (mGPR120) (Mus musculus, UniProt Q7TMA4).
T1 sequence (Q7TMA4 1-361): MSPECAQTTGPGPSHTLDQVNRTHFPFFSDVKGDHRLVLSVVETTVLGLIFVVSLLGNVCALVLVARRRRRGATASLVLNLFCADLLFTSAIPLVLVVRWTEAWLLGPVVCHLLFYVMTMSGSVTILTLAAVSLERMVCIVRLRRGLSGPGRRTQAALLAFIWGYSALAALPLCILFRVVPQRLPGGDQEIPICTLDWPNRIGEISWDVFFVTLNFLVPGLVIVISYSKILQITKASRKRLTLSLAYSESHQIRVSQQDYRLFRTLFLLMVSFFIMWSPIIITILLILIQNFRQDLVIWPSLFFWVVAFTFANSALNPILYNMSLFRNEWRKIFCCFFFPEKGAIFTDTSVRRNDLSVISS
The assay can be described thus: Calcium flux assay in CHO cells expressing mouse GPR120.

For `Cc1ccc(-c2ccc(F)cc2COc2ccc(CCC(=O)O)cc2)cc1` [TUG-891, reference compound], the EC50 on mouse GPR40 (mGPR40) was found to be 5.9 µM. Moreover, at mouse GPR120 (mGPR120), the 50% effective concentration (EC50) came to 0.156 µM and the Hill slope turned out to be 0.8310.

By EC50 is commonly meant the concentration that produces a half-maximal response. Broadly, the Hill slope is the slope factor of the fitted curve.
